From patent publication US9297810B2, “CD40L-binding agent based platelet aggregation assays” (BIOGEN IDEC MA INC., priority 2005, dated 2016)

Molecular target: T1, CD40L on the platelet surface (Homo sapiens, UniProt P29965)
T1 construct: endogenous in cells
T1 sequence (P29965 1-261): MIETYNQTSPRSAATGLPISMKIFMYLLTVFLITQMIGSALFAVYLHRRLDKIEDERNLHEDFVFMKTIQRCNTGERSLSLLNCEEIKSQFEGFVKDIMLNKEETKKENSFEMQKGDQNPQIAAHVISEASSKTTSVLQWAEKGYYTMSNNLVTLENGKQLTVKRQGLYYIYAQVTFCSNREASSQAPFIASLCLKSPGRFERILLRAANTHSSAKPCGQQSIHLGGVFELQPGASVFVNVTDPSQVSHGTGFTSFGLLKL
Experiment: Binding of biotin-conjugated anti-CD40L antibody to platelets (western blotting with HRP-streptavidin)
Details: platelets with or without 10 μM ADP, 1-60 minutes
Protocol: Platelets were incubated with a biotin-conjugated anti-CD40L antibody to determine whether CD40L is present on the surface of platelets. PRP was incubated with or without 10 μM ADP for 1, 10, 20, 40, or 60 minutes and then incubated with biotin-conjugated anti-CD40L antibody. Unbound antibody was removed from the platelets by washing with PBS. The amount of anti-CD40L antibody bound to the platelets was determined by western blotting using HRP-conjugated streptavidin. The specific binding of biotin-conjugated anti-CD40L antibody to the platelets was verified by preincubating the antibody with recombinant sCD40L.
Expression of CD40L was readily detected in lysates prepared from human platelets (data not shown). To determine whether CD40L is expressed on resting and/or activated platelets, platelets were incubated with biotin-conjugated anti-CD40L antibody and the presence of surface CD40L was determined by quantifying the bound biotinylated anti-CD40L antibody. Surface expression of CD40L was evaluated after 1, 10, 20, 40, and 60 minutes of incubation with or without 10 μM ADP. Surface expression of CD40L was detectable on ADP-activated platelets as early as one minute after activation and increased over time (FIG. 2). […] This phenomenon is likely attributable to the basal level of platelet activation under our experimental conditions.

BG9588: Research-grade anti-CD40L antibody prepared at Biogen; table column BG9588 corresponds to it
binding to CD40L on the platelet surface: recognizes the CD40L molecules present on the platelet surface
